Results on one compound are retold here after patent US20250019371A1, “SMALL-MOLECULAR INHIBITORS FOR THE BETA-CATENIN/ B-CELL LYMPHOMA 9 PROTEIN-PROTEIN INTERACTION” (H. LEE MOFFITT CANCER CENTER AND RESEARCH INSTITUTE, INC., priority 2021, published 2025).

By UniProt entry, the sequences of proteins in these tests, tags left out.
UniProt P35222, whole entry: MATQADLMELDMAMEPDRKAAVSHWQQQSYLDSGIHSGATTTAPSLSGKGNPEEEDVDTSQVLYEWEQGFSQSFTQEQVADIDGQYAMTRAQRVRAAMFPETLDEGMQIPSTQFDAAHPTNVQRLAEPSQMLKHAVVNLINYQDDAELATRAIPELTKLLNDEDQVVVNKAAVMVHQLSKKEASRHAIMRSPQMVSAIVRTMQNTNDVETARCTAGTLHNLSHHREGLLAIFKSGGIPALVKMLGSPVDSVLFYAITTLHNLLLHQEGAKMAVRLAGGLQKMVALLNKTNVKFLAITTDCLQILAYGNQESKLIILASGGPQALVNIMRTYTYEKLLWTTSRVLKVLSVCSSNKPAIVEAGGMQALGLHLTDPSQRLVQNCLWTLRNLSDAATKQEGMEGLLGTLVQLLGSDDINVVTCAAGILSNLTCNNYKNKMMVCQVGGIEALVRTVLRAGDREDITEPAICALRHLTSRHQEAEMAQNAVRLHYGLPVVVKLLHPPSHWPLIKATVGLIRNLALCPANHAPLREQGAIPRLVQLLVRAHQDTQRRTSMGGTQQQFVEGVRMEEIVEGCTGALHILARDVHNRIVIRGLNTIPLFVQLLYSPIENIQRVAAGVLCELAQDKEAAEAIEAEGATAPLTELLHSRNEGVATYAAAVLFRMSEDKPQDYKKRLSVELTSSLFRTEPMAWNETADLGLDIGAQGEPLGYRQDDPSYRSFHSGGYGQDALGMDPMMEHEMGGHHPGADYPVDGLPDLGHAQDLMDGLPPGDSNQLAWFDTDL

SMILES strings stand for the structures.

The experiment concerns the target T1, β-catenin/BCL9 PPI (Homo sapiens, UniProt P35222).
T1 construct: Full-length β-catenin (residues 1-781); host or cells: E. coli BL21 DE3
Kind of experiment: AlphaScreen competitive inhibition assay of β-catenin/BCL9 PPI. The experiment is classed as binding. As to conditions: read-out: Ki for disruption of the β-catenin/BCL9 PPI. As to the method: AlphaScreen Assays of β-Catenin and BCL9 Interaction. Experiments were performed in white opaque 384-well plates from PerkinElmer (Waltham, MA), and the samples were read on a Biotek Synergy 2 plate reader (Winooski, VT) with excitation at 680 nm and emission at 570 nm. The standard AlphaScreen protocol was used with a sensitivity setting of 200. All dilutions were made in 1x assay buffer containing 25 mM Hepes (pH 7.4), 100 mM NaCl, 0.01% Triton X-100 and 0.1% BSA to minimize nonspecific interactions. For the competitive inhibition assays of the β-catenin/BCL9 PPI, the negative control (equivalent to 0% inhibition) refers to 5.0 nM biotinylated BCL9, 50 nM His6-tagged β-catenin, and 10 μg/mL donor and acceptor beads in a final volume of 25 μL assay buffer, but no tested inhibitor present. The positive control (equivalent to 100% inhibition) refers to 5.0 nM biotinylated BCL9 and 10 μg/mL donor and acceptor beads in a final volume of 25 μL assay buffer.
For the β-catenin/BCL9 assay, 5 nM biotinylated BCL9, and 50 nM His6-tagged 8-catenin were incubated in assay buffer for 30 min. Different concentrations of the tested inhibitor were added and incubated in 20 μL assay buffer for another 1 h. […] The IC50 value was determined by nonlinear least-square analysis of GraphPad Prism 8.0. […] The results were expressed as mean±standard deviation.
(In general: Bead proximity is the source of the signal in Alpha formats.)

`CC(C)c1ccc(COC(=O)N2CCC[C@@H](c3cccc(OC(C)(C)C(=O)O)c3)C2)cc1` [CP868388]: the Ki turned out to be 11 µM.
